Usually Emax stands for the greatest response seen or fitted, relative to the assay's reference.

Chains of the proteins cited; added tags and fusions are not shown.
UniProt P35372, whole entry, looked up: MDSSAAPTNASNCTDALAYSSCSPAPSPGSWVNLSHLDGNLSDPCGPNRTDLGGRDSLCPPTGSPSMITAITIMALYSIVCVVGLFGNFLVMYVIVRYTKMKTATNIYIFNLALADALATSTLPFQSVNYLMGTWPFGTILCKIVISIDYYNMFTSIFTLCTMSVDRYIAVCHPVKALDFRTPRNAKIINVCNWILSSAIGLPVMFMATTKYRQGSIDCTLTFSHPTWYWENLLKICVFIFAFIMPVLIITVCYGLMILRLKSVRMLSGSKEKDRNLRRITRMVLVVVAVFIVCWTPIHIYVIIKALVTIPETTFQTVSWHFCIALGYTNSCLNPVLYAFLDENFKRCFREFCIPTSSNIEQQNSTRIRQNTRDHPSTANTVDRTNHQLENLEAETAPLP

Molecules are shown by their SMILES.

For two compounds, Emax results are on record in ChEMBL document CHEMBL1152717, “Discovery of mu-opioid selective ligands derived from 1-aminotetralin scaffolds made via metal-catalyzed ring-opening reactions” (Bioorg Med Chem Lett, 2009).

The target in the test is Mu-type opioid receptor (Homo sapiens, UniProt P35372). As to conditions: at 100 µM.

In the case of `COCCN(C(=O)Cc1ccc(Cl)cc1)C1c2cc(OC)c(OC)cc2CCC1N(C)C` (configuration not stated), the Emax was 0%.

In turn, `COCCN(C(=O)COc1ccc(Cl)cc1)C1c2cc(OC)c(OC)cc2CCC1N(C)C` (configuration not stated) displayed an Emax of 0%.
